AC50 data for one molecule are collected here from PubChem BioAssay AID1259334 (Broad Institute, 2017).

The assay relates to B cell line, TNFa signaling counterscreen reporter. Description: TNFa signaling inhibitors in B cell line, dose response, counter-screen (AID 1259334;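 also: cells stimulated with TNFa after compound preincubation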). (In general: The purpose of a counterscreen is to sort out artefacts and off-target activity.)

Usually AC50 stands for the concentration giving half of the maximal activity seen. For the molecule `CCC1=CC2Cc3nc4ccc(Cl)cc4c(N)c3C(C1)C2` (stereo unspecified), the AC50 was 7.34 µM.
